pIC50: −log10 of the molar value.
Target: DPP-IV from porcine kidney (Sus scrofa, UniProt P22411)
Assay: Measurement of the DPP-IV activity (fluorimetric H-Ala-Pro-AFC conversion)
Settings: DPP-IV 1 mU/ml, substrate H-Ala-Pro-AFC 15 μM, Tris/HCl 40 mM, pH 7.4, room temperature
Protocol: The activity of the compounds was assayed as follows:
Measurement of the DPP-IV activity:
DPP-IV from porcine kidney (Sigma, Munich)
H-Ala-Pro-AFC (Bachem, Weil am Rhein)
DPP-IV (1 mU/ml, final concentration)
H-Ala-Pro-AFC (15 μM, final concentration) in Tris/HCl (40 mM, pH 7.4), total volume 0.2 ml
The reaction was carried out at room temperature for various times (typically 10 min) and stopped at the end of the reaction by adding 20 μl of ZnCl2(1M). The H-Ala-Pro-AFC conversion was determined fluorimetrically by measuring the emission at 535 nm after excitation at 405 nm. When inhibitors were added, the added buffer volume was adapted so that a total volume of 200 μl was maintained for the assay mixture.
IC50 values for inhibitors were determined by varying the inhibitor concentrations with the stated substrate concentration of 15 μM. Ki and Km values were found by appropriate variation of substrate concentration and inhibitor concentration as described (Dixon, M. and Webb, E. C. (1979) Enzymes, third edition, pp. 47–206, Academic Press). The values for Km, IC50 and Ki were calculated using a commercially available software package (Leatherbarrow, R. J. (1992) GraFit Version 3.0, Erithacus Software Ltd. Staines, U.K.).

Sequences of proteins named here, by UniProt entry; tags and fusion partners are left off.
UniProt P22411, whole entry: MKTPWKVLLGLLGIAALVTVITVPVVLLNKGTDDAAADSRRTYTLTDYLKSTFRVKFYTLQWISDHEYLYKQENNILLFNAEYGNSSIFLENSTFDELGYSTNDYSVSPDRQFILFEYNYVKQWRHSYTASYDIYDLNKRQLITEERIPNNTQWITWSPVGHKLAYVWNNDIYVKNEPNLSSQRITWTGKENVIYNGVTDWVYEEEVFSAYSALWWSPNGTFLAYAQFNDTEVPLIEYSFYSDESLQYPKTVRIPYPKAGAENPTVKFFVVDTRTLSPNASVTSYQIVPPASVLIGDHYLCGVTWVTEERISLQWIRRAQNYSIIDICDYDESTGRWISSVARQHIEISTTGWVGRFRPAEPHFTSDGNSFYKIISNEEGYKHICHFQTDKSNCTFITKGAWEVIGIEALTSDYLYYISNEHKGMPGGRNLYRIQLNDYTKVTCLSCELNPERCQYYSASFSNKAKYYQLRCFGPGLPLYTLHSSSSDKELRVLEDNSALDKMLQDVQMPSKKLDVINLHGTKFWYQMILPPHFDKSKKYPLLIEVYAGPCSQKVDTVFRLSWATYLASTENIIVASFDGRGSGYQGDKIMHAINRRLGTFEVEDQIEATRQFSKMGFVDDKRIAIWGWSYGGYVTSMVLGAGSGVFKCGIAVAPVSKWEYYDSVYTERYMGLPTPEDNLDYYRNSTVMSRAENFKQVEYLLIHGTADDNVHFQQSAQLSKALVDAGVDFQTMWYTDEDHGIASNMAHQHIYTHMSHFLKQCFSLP

[1] = tested form: bistrifluoroacetate

pIC50 (tested form: trifluoroacetate) | pIC50 [1] | Compound
– | 6.52 | N#C[C@@H]1CS[C@H]2C[C@](N)(C3CCNCC3)C(=O)N12
– | 6.30 | N#C[C@@H]1CS[C@H]2C[C@](N)(CC3CCNCC3)C(=O)N12
6.40 | – | N#C[C@@H]1CS[C@H]2C[C@](N)(CO)C(=O)N12

The next lines start with the compound.

Compound | pIC50 (tested form: trifluoroacetate) | pIC50 [1]
N#C[C@@H]1CS[C@H]2C[C@](N)(Cc3ccccc3)C(=O)N12.O=C(O)C(F)(F)F | 7.32 | –
N#C[C@@H]1CS[C@H]2C[C@@H](N)C(=O)N12 | 7.33 | –
CC(C)C[C@@]1(N)C[C@@H]2SC[C@@H](C#N)N2C1=O | 7.74 | –
N#C[C@@H]1CS[C@H]2C[C@@H](NC3CCCC3)C(=O)N12 | 5.70 | –

Reference: patent US7008957B2, “Bicyclic cyanoheterocycles, process for their preparation and their use as medicaments” (Sanofi-Aventis Deutschland GmbH, priority 2003, dated 2006)
